Data reported in patent US20230338526A1 (BIO THERA SOLUTIONS, published 2023).

Legend:
CD20 [1] = target: T1, CD20 (human, UniProt P11836 1-297); experiment: cell-based or functional assay
T1 sequence (looked up): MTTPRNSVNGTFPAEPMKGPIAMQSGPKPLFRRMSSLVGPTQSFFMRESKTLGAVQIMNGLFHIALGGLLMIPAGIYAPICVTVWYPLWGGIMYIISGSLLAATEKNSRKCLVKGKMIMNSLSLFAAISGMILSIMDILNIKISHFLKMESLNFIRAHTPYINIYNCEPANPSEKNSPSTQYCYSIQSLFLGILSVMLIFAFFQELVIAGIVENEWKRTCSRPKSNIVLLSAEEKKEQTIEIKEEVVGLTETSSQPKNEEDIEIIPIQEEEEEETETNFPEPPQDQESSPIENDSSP

CD20 [2] = target: T1, CD20; experiment: cell-based or functional assay; remark: listed apart in the source
CD20 [3] = target: T1, CD20; experiment: binding to CD20+ cells; method and cell line not stated

B1: Ofatumumab (antibody, V domains shown)
VH: EVQLVESGGGLVQPGRSLRLSCAASGFTFNDYAMHWVRQAPGKGLEWVSTISWNSGSIGYADSVKGRFTISRDNAKKSLYLQMNSLRAEDTALYYCAKDIQYGNYYYGMDVWGQGTTVTVSS
VL: EIVLTQSPATLSLSPGERATLSCRASQSVSSYLAWYQQKPGQAPRLLIYDASNRATGIPARFSGSGSGTDFTLTISSLEPEDFAVYYCQQRSNWPITFGQGTRLEIK
In the case of B1, the “Percentage of whole blood B-cell depletion in vitro, 10 ng/ml” value (CD20 [1]) is reported as 27%, the “Percentage of whole blood B-cell depletion in vitro, 50 ng/ml” value (CD20 [1]) is reported as 53.2% and the “ADCC, PBMC method” value (CD20 [2]) is reported as 0.0261 nM. For the same binder, the “ADCC, Reporter gene assay method” value (CD20 [2]) was 0.011 nM and the “Binding to CD 20^+ cells” value (CD20 [3]) was 4.16 nM.
